{"source": "patent US11452727B2", "about": "“Combination therapy for treating cancer” (Epizyme, Inc., priority 2017, dated 2022)", "test_in_all_cases": "In vitro combination study with tazemetostat, cell proliferation (Cell Titer Glo)", "conditions_in_all_cases": "7 days tazemetostat pre-treatment, 6 days co-treatment with second agent", "key": {"NCI-H1793": {"system": "NCI-H1793"}, "NCI-H460": {"system": "NCI-H460"}, "NCI-H2122": {"system": "NCI-H2122"}, "NCI-H661": {"system": "NCI-H661"}, "NCI-H23": {"system": "NCI-H23"}, "NCI-H2110": {"system": "NCI-H2110"}, "A549": {"system": "A549"}, "NCI-H522": {"system": "NCI-H522"}, "NCI-H838": {"system": "NCI-H838"}, "NCI-H2030": {"system": "NCI-H2030"}, "NCI-H1703": {"system": "NCI-H1703"}, "Calu-3": {"system": "Calu-3"}, "A427": {"system": "A427"}, "NCI-H1993": {"system": "NCI-H1993"}, "HCC827": {"system": "HCC827"}, "Calu-6": {"system": "Calu-6"}, "NCI-H1299": {"system": "NCI-H1299"}}}
{"compound": "Nc1ncn([C@H]2C[C@H](O)[C@@H](CO)O2)c(=O)n1", "note": "[Decitabine, decitabine]", "values": [{"measurement": "combinatorial effect with tazemetostat (Loewe volume class)", "setting": "NCI-H1793", "value": "Syn. (Loewe volumes greater than 1 denoted “synergy”)"}, {"measurement": "combinatorial effect with tazemetostat (Loewe volume class)", "setting": "NCI-H460", "value": "Syn. (Loewe volumes greater than 1 denoted “synergy”)"}, {"measurement": "combinatorial effect with tazemetostat (Loewe volume class)", "setting": "NCI-H2122", "value": "Syn. (Loewe volumes greater than 1 denoted “synergy”)"}, {"measurement": "combinatorial effect with tazemetostat (Loewe volume class)", "setting": "NCI-H661", "value": "Syn. (Loewe volumes greater than 1 denoted “synergy”)"}, {"measurement": "combinatorial effect with tazemetostat (Loewe volume class)", "setting": "NCI-H23", "value": "Add. (A value between −1 and 1 denoted “additivity”)"}, {"measurement": "combinatorial effect with tazemetostat (Loewe volume class)", "setting": "NCI-H2110", "value": "Add. (A value between −1 and 1 denoted “additivity”)"}]}
{"compound": "CN(Cc1cnc2nc(N)nc(N)c2n1)c1ccc(C(=O)N[C@@H](CCC(=O)O)C(=O)O)cc1", "note": "[Methotrexate, methotrexate]", "values": [{"measurement": "combinatorial effect with tazemetostat (Loewe volume class)", "setting": "A549", "value": "Anta. (volumes <−1 denoted “antagonism”)"}, {"measurement": "combinatorial effect with tazemetostat (Loewe volume class)", "setting": "NCI-H522", "value": "Anta. (volumes <−1 denoted “antagonism”)"}, {"measurement": "combinatorial effect with tazemetostat (Loewe volume class)", "setting": "NCI-H838", "value": "Anta. (volumes <−1 denoted “antagonism”)"}]}
{"compound": "C#Cc1cccc(Nc2ncnc3cc(OCCOC)c(OCCOC)cc23)c1", "note": "[Erlotinib, erlotinib]", "values": [{"measurement": "combinatorial effect with tazemetostat (Loewe volume class)", "setting": "NCI-H2030", "value": "Add. (A value between −1 and 1 denoted “additivity”)"}, {"measurement": "combinatorial effect with tazemetostat (Loewe volume class)", "setting": "NCI-H460", "value": "No eff."}, {"measurement": "combinatorial effect with tazemetostat (Loewe volume class)", "setting": "NCI-H661", "value": "Syn. (Loewe volumes greater than 1 denoted “synergy”)"}, {"measurement": "combinatorial effect with tazemetostat (Loewe volume class)", "setting": "NCI-H1703", "value": "Syn. (Loewe volumes greater than 1 denoted “synergy”)"}, {"measurement": "combinatorial effect with tazemetostat (Loewe volume class)", "setting": "A549", "value": "Anta. (volumes <−1 denoted “antagonism”)"}, {"measurement": "combinatorial effect with tazemetostat (Loewe volume class)", "setting": "NCI-H838", "value": "Syn. (Loewe volumes greater than 1 denoted “synergy”)"}, {"measurement": "combinatorial effect with tazemetostat (Loewe volume class)", "setting": "Calu-3", "value": "Syn. (Loewe volumes greater than 1 denoted “synergy”)"}, {"measurement": "combinatorial effect with tazemetostat (Loewe volume class)", "setting": "NCI-H23", "value": "No eff."}, {"measurement": "combinatorial effect with tazemetostat (Loewe volume class)", "setting": "NCI-H2110", "value": "Syn. (Loewe volumes greater than 1 denoted “synergy”)"}]}
{"compound": "oxaliplatin", "values": [{"measurement": "combinatorial effect with tazemetostat (Loewe volume class)", "setting": "NCI-H1703", "value": "Anta. (volumes <−1 denoted “antagonism”)"}, {"measurement": "combinatorial effect with tazemetostat (Loewe volume class)", "setting": "A427", "value": "Syn. (Loewe volumes greater than 1 denoted “synergy”)"}]}
{"compound": "CS(=O)(=O)CCNCc1ccc(-c2ccc3ncnc(Nc4ccc(OCc5cccc(F)c5)c(Cl)c4)c3c2)o1", "note": "[Lapatinib, lapatinib]", "values": [{"measurement": "combinatorial effect with tazemetostat (Loewe volume class)", "setting": "NCI-H1793", "value": "Syn. (Loewe volumes greater than 1 denoted “synergy”)"}, {"measurement": "combinatorial effect with tazemetostat (Loewe volume class)", "setting": "NCI-H460", "value": "Syn. (Loewe volumes greater than 1 denoted “synergy”)"}, {"measurement": "combinatorial effect with tazemetostat (Loewe volume class)", "setting": "NCI-H2122", "value": "Anta. (volumes <−1 denoted “antagonism”)"}, {"measurement": "combinatorial effect with tazemetostat (Loewe volume class)", "setting": "NCI-H1703", "value": "Syn. (Loewe volumes greater than 1 denoted “synergy”)"}, {"measurement": "combinatorial effect with tazemetostat (Loewe volume class)", "setting": "A549", "value": "Add. (A value between −1 and 1 denoted “additivity”)"}, {"measurement": "combinatorial effect with tazemetostat (Loewe volume class)", "setting": "NCI-H838", "value": "Syn. (Loewe volumes greater than 1 denoted “synergy”)"}, {"measurement": "combinatorial effect with tazemetostat (Loewe volume class)", "setting": "NCI-H2110", "value": "Syn. (Loewe volumes greater than 1 denoted “synergy”)"}]}
{"compound": "CCC1=C[C@@H]2CN(C1)Cc1c([nH]c3ccccc13)[C@@](C(=O)OC)(c1cc3c(cc1OC)N(C)[C@H]1[C@@](O)(C(=O)OC)[C@H](OC(C)=O)[C@]4(CC)C=CCN5CC[C@]31[C@@H]54)C2", "note": "[Vinorelbine, vinorelbine]", "values": [{"measurement": "combinatorial effect with tazemetostat (Loewe volume class)", "setting": "NCI-H2030", "value": "Add. (A value between −1 and 1 denoted “additivity”)"}, {"measurement": "combinatorial effect with tazemetostat (Loewe volume class)", "setting": "NCI-H460", "value": "Add. (A value between −1 and 1 denoted “additivity”)"}, {"measurement": "combinatorial effect with tazemetostat (Loewe volume class)", "setting": "NCI-H2122", "value": "Syn. (Loewe volumes greater than 1 denoted “synergy”)"}, {"measurement": "combinatorial effect with tazemetostat (Loewe volume class)", "setting": "NCI-H1993", "value": "Add. (A value between −1 and 1 denoted “additivity”)"}, {"measurement": "combinatorial effect with tazemetostat (Loewe volume class)", "setting": "HCC827", "value": "Add. (A value between −1 and 1 denoted “additivity”)"}, {"measurement": "combinatorial effect with tazemetostat (Loewe volume class)", "setting": "Calu-3", "value": "Syn. (Loewe volumes greater than 1 denoted “synergy”)"}, {"measurement": "combinatorial effect with tazemetostat (Loewe volume class)", "setting": "NCI-H2110", "value": "Add. (A value between −1 and 1 denoted “additivity”)"}, {"measurement": "combinatorial effect with tazemetostat (Loewe volume class)", "setting": "A427", "value": "Syn. (Loewe volumes greater than 1 denoted “synergy”)"}]}
{"compound": "ATRA", "values": [{"measurement": "combinatorial effect with tazemetostat (Loewe volume class)", "setting": "NCI-H2030", "value": "Anta. (volumes <−1 denoted “antagonism”)"}, {"measurement": "combinatorial effect with tazemetostat (Loewe volume class)", "setting": "NCI-H1793", "value": "No eff."}, {"measurement": "combinatorial effect with tazemetostat (Loewe volume class)", "setting": "NCI-H2122", "value": "Anta. (volumes <−1 denoted “antagonism”)"}, {"measurement": "combinatorial effect with tazemetostat (Loewe volume class)", "setting": "Calu-6", "value": "Syn. (Loewe volumes greater than 1 denoted “synergy”)"}, {"measurement": "combinatorial effect with tazemetostat (Loewe volume class)", "setting": "HCC827", "value": "No eff."}, {"measurement": "combinatorial effect with tazemetostat (Loewe volume class)", "setting": "A427", "value": "Add. (A value between −1 and 1 denoted “additivity”)"}]}
{"compound": "C[C@@H](Oc1cc(-c2cnn(C3CCNCC3)c2)cnc1N)c1c(Cl)ccc(F)c1Cl", "note": "[Crizotinib, crizotinib]", "values": [{"measurement": "combinatorial effect with tazemetostat (Loewe volume class)", "setting": "NCI-H2030", "value": "Syn. (Loewe volumes greater than 1 denoted “synergy”)"}, {"measurement": "combinatorial effect with tazemetostat (Loewe volume class)", "setting": "NCI-H1793", "value": "Syn. (Loewe volumes greater than 1 denoted “synergy”)"}, {"measurement": "combinatorial effect with tazemetostat (Loewe volume class)", "setting": "NCI-H460", "value": "Add. (A value between −1 and 1 denoted “additivity”)"}, {"measurement": "combinatorial effect with tazemetostat (Loewe volume class)", "setting": "NCI-H2122", "value": "Add. (A value between −1 and 1 denoted “additivity”)"}, {"measurement": "combinatorial effect with tazemetostat (Loewe volume class)", "setting": "Calu-6", "value": "Add. (A value between −1 and 1 denoted “additivity”)"}, {"measurement": "combinatorial effect with tazemetostat (Loewe volume class)", "setting": "A549", "value": "Add. (A value between −1 and 1 denoted “additivity”)"}, {"measurement": "combinatorial effect with tazemetostat (Loewe volume class)", "setting": "NCI-H1299", "value": "Add. (A value between −1 and 1 denoted “additivity”)"}, {"measurement": "combinatorial effect with tazemetostat (Loewe volume class)", "setting": "Calu-3", "value": "Add. (A value between −1 and 1 denoted “additivity”)"}, {"measurement": "combinatorial effect with tazemetostat (Loewe volume class)", "setting": "NCI-H23", "value": "Add. (A value between −1 and 1 denoted “additivity”)"}, {"measurement": "combinatorial effect with tazemetostat (Loewe volume class)", "setting": "NCI-H2110", "value": "Add. (A value between −1 and 1 denoted “additivity”)"}]}
